{"sequences": {"note": "Chains of the proteins cited; added tags and fusions are not shown.", "UniProt Q92831, whole entry, looked up": "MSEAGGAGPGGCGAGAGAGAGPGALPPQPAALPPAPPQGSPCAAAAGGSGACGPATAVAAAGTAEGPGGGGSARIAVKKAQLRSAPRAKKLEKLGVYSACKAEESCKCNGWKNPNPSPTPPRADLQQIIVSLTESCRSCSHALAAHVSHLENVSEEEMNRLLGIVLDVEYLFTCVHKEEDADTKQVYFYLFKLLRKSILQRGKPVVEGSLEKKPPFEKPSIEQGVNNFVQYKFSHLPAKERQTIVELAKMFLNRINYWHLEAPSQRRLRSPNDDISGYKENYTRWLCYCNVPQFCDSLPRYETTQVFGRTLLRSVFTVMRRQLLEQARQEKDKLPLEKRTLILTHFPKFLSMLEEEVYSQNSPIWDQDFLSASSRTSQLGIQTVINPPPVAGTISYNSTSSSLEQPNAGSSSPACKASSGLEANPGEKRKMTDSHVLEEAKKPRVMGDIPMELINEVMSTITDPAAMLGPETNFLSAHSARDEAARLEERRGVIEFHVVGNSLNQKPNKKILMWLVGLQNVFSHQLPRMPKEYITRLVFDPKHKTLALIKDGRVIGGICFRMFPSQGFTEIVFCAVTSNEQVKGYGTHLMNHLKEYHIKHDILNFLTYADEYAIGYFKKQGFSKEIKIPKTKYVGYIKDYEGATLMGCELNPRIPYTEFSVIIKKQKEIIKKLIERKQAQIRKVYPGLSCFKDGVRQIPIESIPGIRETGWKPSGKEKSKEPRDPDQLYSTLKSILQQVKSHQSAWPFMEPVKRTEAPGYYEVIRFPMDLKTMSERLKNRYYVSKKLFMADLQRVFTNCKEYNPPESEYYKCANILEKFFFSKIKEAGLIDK"}, "source": "ChEMBL document CHEMBL4649995", "about": "“Discovery of a PCAF Bromodomain Chemical Probe” (Angew Chem Int Ed Engl, 2017)", "target": "Histone acetyltransferase KAT2B (Homo sapiens) (UniProt Q92831)", "conditions": "Compound concentration 10.0 uM, Protein concentration 2.0 uM"}
{"smiles": "Cc1nnc2c3ccccc3c(N[C@@H](C)[C@H](c3ccccc3)N(C)C)nn12", "values": [{"measurement": "ΔTm", "value": 5.77, "unit": "°C"}]}
